Legend:
[1] = MIC broth double-dilution assay with the inoculum size of the time-kill assays; assay type: cell-based; settings: inoculum 1×10^6 CFU/mL
[2] = system: murine red blood cells (mRBCs); test: hemolytic assay; settings: compared to ebselen / among ebsulfur analogues tested

## O=c1c2ccccc2sn1-c1ccccc1 [2a, 2-phenyl-1,2-benzisothiazol-3(2H)-one]
[1]
  MIC values with time-kill inoculum size compared with standard MIC: remained identical
[2]
  hemolytic activity, comparison: less hemolytic when compared to ebselen
